From ChEMBL document CHEMBL1240482, “Synthesis and antiproliferative evaluation of certain indeno[1,2-c]quinoline derivatives. Part 2” (J Med Chem, 2010) come the findings set out here.

pIC50: −log10 of the molar value.

This test deals with T1, DNA topoisomerase 1 (Homo sapiens, UniProt P11387).
T1 sequence (P11387 whole entry): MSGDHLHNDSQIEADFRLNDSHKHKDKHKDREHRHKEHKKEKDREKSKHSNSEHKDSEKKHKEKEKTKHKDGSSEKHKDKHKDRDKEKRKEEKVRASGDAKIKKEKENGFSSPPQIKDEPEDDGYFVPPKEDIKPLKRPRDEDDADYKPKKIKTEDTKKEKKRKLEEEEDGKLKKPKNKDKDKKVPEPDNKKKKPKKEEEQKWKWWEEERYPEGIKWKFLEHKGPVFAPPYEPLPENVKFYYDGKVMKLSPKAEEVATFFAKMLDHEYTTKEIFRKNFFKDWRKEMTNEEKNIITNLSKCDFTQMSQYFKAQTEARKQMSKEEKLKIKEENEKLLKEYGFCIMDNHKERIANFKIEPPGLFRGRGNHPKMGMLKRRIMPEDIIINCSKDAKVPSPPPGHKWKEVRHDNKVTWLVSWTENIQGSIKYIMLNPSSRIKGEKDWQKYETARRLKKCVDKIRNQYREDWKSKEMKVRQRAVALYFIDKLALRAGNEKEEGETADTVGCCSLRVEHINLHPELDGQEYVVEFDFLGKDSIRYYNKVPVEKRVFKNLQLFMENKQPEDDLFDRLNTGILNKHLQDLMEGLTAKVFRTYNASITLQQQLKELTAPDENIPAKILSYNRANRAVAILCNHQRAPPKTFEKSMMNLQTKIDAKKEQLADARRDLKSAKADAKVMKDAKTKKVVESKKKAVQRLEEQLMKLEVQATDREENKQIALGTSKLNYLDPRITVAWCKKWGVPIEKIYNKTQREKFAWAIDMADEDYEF
In words: Inhibition of human topoisomerase 1 assessed as decrease in pBR322 mobility on agarose gel by electrophoresis. In outline: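 Enzyme preincubated with compound before DNA addition; reaction run 30 min at 37 °C and stopped with SDS. Products resolved on 1% agarose, stained with ethidium bromide, quantified by densitometry.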

On to `COc1cccc2c1C(=O)c1c(O)c3c(c(O)c1C2=O)C[C@@](O)(C(=O)CO)C[C@@H]3O[C@H]1C[C@H](N)[C@H](O)[C@H](C)O1` [DOXORUBICIN], for which the pIC50 was 4.70.

As usually defined, the pIC50 is the negative decadic logarithm of the IC50, by convention in mol/L.
